The values below are quoted from earlier work in patent publication US20250114351A1, “5-HT2C RECEPTOR MODULATING AGENTS FOR THE TREATMENT OF NEURODEGENERATIVE, MENTAL, COGNITIVE AND AUTOIMMUNE CNS DISORDERS” (priority 2022, published 2025).

Amino acid sequences for entries named in this document (tags omitted). Residues count along the entry.
UniProt P28223, whole entry, species assumed: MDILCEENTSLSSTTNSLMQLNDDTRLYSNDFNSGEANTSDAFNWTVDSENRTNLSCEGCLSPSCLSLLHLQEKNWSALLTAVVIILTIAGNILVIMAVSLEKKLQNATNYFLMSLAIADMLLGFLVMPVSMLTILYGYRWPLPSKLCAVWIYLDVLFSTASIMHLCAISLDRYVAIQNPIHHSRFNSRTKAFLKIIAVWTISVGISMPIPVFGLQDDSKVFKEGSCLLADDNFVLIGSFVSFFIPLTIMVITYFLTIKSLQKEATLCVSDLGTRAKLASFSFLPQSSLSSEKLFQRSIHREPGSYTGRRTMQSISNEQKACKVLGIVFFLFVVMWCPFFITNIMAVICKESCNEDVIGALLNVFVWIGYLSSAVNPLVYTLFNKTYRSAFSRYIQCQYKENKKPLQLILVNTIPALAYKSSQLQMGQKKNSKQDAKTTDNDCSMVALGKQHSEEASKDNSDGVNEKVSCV
UniProt P28335, 33-458, species assumed: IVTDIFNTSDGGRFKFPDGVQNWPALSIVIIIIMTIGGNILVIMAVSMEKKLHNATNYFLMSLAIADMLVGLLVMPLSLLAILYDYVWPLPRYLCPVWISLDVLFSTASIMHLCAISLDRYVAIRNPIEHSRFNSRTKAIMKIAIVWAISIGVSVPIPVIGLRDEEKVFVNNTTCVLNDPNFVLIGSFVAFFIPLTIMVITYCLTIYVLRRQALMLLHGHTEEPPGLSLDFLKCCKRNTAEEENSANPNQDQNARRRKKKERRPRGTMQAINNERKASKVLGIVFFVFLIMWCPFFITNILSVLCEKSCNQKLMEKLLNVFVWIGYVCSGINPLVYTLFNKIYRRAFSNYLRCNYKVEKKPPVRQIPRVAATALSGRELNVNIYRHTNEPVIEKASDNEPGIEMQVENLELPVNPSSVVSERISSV
UniProt P41595, whole entry, species assumed: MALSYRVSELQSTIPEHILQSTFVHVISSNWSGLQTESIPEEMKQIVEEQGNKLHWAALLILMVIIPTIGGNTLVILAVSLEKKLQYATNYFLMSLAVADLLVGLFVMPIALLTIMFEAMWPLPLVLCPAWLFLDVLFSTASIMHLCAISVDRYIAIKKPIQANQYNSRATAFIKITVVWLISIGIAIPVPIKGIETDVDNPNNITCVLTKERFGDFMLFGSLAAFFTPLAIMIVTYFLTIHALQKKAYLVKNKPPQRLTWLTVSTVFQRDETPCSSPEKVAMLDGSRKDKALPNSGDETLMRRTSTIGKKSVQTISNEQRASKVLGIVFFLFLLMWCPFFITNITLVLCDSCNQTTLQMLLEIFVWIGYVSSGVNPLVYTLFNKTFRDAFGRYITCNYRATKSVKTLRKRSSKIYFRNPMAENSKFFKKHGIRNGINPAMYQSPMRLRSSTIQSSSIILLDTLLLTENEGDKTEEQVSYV

The term EC50 denotes the concentration that produces a half-maximal response.

Details in all cases: cited from earlier work
Data set [1] addresses 5-HT2A (Homo sapiens, UniProt P28223).
Data set [2] deals with 5-HT2C (Homo sapiens, UniProt P28335).
For data set [3], the target named is 5-HT2B (Homo sapiens, UniProt P41595).

Regarding `Clc1cccc(N2CCNCC2)c1` [mCPP, m-Chlorophenylpiperazine], in data set [1], the “5-HT2A Emax” value was 18 ± 2% and the EC50 is 150 ± 20 nM. In addition, the “5-HT2C Emax” value in data set [2] is 63 ± 3%. Also, the EC50 in data set [2] (read-out: S-HT2C EC50) is 120 ± 10 nM. Also, in data set [3], the “5-HT2B Emax” value is given as 21 ± 9% and the EC50 is 93 ± 50 nM.
